{
  "source": "patent US20130052259A1",
  "about": "“LIPOSOMES COMPRISING AMPHIPATHIC DRUGS AND METHOD FOR THEIR PREPARATION” (priority 2010, published 2013)",
  "key": {"[1]": {"system": "Daoy (medulloblastoma) tumors", "experiment": "Efficacy against Daoy (medulloblastoma) tumors in nude mice, Kaplan-Meier", "conditions": "Daoy tumors s.c., i.v. at days 17, 23 and 29"}, "SW480 colon cancer cells": {"system": "SW480 colon cancer cells", "experiment": "MTT cytotoxicity and median-effect (CI) analysis, SW480", "assay_type": "cell-based, human", "conditions": "SW480 cells (FIG. 1A)"}, "[2]": {"system": "Daoy medulloblastoma cells", "experiment": "MTT cytotoxicity and median-effect (CI) analysis, Daoy;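 also: drugs applied at fixed ratios over eight concentrations for 72 h, survival expressed against untreated control wells, affected fraction (fa) derived per well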"}},
  "data": [
    {"smiles": "CC[C@]1(O)C[C@H]2CN(CCc3c([nH]c4ccccc34)[C@@](C(=O)OC)(c3cc4c(cc3OC)N(C=O)[C@H]3[C@@](O)(C(=O)OC)[C@H](OC(C)=O)[C@]5(CC)C=CCN6CC[C@]43[C@@H]65)C2)C1", "note": "[Vincristine (VCR), Vincristine]", "values": [
      {"measurement": "therapeutic efficacy (Kaplan-Meier, tumor ≧1000 mg as endpoint)", "setting": "[1]", "value": "better than treatment with saline"},
      {"measurement": "therapeutic efficacy (Kaplan-Meier, tumor ≧1000 mg as endpoint)", "setting": "[1]; listed as Free VCR", "value": "more efficacious for treatment of medulloblastome than free TPT"},
      {"measurement": "potency of VCR relative to TPT", "setting": "SW480 colon cancer cells", "value": 4, "unit": "fold"},
      {"measurement": "potency of VCR relative to TPT", "setting": "[2]", "value": 15, "unit": "fold"}
    ]}
  ]
}
